Here are results for one compound from US4172896A, “Methane-sulfonamide derivatives, the preparation thereof and composition comprising the same” (Dainippon Pharmaceutical Co., Ltd., priority 1978, dated 1979).

One data set is described as follows: in vivo. As to conditions: mouse, mice, oral. The source says: Male mice of STD-ddY strain weighing 20-22 g were used. The test compounds were orally administered to the test animals (each group: 10 mice) in the form of a homogeneous suspension in 0.5% tragacanth solution.
Data set [1] can be described thus: Effect on coordinated motor movements in mice (rotarod). As to conditions: mouse, in vivo, po. On the procedure: Mice trained to continue coordinated motor movements for 100 seconds or more on a rotarod apparatus (2.5 cm in diameter at 11 RPM) were used [J. Amer. Pharm. […] Impairment of coordinated motor movements was defined as the inability of the animals to retain on the rotarod for a 100 second test period. After oral administration of the test compounds rotarod performance was tested at intervals of 1 hour for 6 hours. Median neurotoxic dose (NTD50), i.e. the does which causes fall from rotarod in 50% of animals, was calculated by the method of Litchfield and Wilcoxon.
(In general: Falling from the rotarod earlier than controls is read as motor impairment.)

Usually LD50 stands for the dose expected to kill half of the subjects tested. A lower LD50 goes with a more toxic substance. For `O=C1NC(=O)C(c2ccccc2)(c2ccccc2)N1` [Diphenylhydantoin, 5,5-diphenyl-2,4-imidazolidinedione, reference compound], the selectivity ratio is 47.8 in “in vivo” (LD50/ED50 of anti-MES, read-out: Safety index) and 9.5 in data set [1]. Further, the LD50 at 168 h in the data set “in vivo” (mortality observed for 7 days) turned out to be 363 mg/kg.
